The target of assay [1] is human mu opioid receptor (hMOR) (Homo sapiens, UniProt P35372). The class given is cell-based. Particulars: read-out: EC50 Gi-1 activation hMOR.
For assay [2], the target named is hDAT (Homo sapiens, UniProt Q01959). As to the kind of experiment: NIMH-PDSP radioligand binding. The settings on record: read-out: affinity Ki hDAT.
The target of assay [3] is hα2A (Homo sapiens, UniProt P08913). As to the kind of experiment: NIMH-PDSP radioligand binding. Particulars: read-out: affinity Ki hα2A.
Assay [4] concerns the target MOR. The settings on record: read-out: binding affinity at MOR; cited from earlier work.
Assay [5] addresses h5HT1A (Homo sapiens, UniProt P08908). As to the kind of experiment: NIMH-PDSP radioligand binding. The settings on record: read-out: affinity Ki h5HT1A.
In assay [6] the target is hKOR (Homo sapiens, UniProt P41145). Kind of assay: NIMH-PDSP radioligand binding. The settings on record: read-out: affinity Ki hKOR.
In assay [7] the target is hα1B (Homo sapiens, UniProt P35368). Kind of assay: NIMH-PDSP radioligand binding. The settings on record: read-out: affinity Ki hα1B.
For assay [8], the target named is hα2C (Homo sapiens, UniProt P18825). Kind of assay: NIMH-PDSP radioligand binding. Particulars: read-out: affinity Ki hα2C.
For assay [9], the target named is hH2 (Homo sapiens, UniProt P25021). Kind of assay: NIMH-PDSP radioligand binding. Particulars: read-out: affinity Ki hH2.
Assay [10] concerns the target hα2B (Homo sapiens, UniProt P18089). Kind of assay: NIMH-PDSP radioligand binding. Particulars: read-out: affinity Ki hα2B.
The target of assay [11] is T1, hα1A (Homo sapiens, UniProt P35348).
T1 sequence (P35348 1-466): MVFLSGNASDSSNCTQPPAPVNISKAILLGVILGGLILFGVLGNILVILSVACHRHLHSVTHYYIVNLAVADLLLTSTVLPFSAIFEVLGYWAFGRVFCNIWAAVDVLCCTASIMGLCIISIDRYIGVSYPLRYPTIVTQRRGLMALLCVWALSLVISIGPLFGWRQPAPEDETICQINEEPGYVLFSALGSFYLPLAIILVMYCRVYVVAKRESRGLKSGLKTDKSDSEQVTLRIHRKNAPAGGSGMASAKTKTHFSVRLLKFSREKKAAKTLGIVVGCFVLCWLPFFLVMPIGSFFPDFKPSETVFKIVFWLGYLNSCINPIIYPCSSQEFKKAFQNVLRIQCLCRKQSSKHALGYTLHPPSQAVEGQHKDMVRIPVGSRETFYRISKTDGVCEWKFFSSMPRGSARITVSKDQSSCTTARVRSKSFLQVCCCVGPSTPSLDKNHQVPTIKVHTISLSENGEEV
As to the kind of experiment: NIMH-PDSP radioligand binding. The settings on record: read-out: affinity Ki hα1A.

Amino acid sequences for entries named in this document (tags omitted). A change or cut given only in a name is not applied to a line headed by its entry.
UniProt P35372, whole entry: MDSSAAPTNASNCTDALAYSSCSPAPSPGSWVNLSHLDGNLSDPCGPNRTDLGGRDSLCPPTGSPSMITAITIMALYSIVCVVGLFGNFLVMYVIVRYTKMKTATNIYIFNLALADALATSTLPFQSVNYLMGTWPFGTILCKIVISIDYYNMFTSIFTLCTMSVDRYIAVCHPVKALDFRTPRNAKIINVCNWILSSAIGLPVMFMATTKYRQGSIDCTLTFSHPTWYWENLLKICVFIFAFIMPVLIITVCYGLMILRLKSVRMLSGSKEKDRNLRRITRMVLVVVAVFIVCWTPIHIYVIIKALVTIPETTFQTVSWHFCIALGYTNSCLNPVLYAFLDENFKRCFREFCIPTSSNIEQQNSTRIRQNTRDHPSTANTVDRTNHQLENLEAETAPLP
UniProt Q01959, whole entry: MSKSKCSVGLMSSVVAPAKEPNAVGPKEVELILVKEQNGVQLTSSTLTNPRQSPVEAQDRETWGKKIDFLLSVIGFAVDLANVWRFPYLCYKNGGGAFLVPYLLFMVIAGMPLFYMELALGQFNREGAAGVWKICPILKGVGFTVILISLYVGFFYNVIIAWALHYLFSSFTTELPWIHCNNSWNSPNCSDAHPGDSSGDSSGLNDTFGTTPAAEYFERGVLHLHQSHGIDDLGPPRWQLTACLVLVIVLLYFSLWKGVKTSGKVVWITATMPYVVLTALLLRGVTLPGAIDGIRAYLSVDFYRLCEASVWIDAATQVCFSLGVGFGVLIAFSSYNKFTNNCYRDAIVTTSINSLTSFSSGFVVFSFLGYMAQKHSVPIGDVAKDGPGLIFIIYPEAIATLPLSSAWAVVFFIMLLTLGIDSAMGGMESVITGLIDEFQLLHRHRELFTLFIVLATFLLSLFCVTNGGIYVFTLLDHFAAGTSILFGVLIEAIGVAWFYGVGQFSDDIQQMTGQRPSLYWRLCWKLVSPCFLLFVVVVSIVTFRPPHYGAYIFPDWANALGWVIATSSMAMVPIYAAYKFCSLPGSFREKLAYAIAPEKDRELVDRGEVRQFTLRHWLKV
UniProt P08913, whole entry: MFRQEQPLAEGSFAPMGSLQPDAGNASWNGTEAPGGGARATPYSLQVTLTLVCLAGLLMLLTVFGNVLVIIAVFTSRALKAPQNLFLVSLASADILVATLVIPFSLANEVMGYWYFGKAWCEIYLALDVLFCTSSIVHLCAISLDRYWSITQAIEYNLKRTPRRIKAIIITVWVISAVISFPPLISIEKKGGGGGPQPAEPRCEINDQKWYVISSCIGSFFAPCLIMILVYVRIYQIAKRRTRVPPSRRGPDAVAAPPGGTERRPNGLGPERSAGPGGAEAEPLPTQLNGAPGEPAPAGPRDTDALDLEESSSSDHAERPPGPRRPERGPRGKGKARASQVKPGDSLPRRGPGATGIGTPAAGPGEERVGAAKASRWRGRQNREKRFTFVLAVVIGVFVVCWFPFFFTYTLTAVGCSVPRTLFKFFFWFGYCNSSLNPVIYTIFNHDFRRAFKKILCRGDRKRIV
UniProt P08908, whole entry: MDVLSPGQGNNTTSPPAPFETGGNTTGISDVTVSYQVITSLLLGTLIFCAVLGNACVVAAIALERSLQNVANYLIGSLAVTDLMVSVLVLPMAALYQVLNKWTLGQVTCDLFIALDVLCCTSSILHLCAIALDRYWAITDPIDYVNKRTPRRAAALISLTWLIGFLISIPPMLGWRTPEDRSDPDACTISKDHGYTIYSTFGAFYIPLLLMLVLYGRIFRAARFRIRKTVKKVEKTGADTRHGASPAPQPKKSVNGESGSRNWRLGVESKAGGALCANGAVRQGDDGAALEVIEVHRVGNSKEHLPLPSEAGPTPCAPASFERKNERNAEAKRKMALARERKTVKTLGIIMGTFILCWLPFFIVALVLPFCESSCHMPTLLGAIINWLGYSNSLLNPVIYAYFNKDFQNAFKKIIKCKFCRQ
UniProt P41145: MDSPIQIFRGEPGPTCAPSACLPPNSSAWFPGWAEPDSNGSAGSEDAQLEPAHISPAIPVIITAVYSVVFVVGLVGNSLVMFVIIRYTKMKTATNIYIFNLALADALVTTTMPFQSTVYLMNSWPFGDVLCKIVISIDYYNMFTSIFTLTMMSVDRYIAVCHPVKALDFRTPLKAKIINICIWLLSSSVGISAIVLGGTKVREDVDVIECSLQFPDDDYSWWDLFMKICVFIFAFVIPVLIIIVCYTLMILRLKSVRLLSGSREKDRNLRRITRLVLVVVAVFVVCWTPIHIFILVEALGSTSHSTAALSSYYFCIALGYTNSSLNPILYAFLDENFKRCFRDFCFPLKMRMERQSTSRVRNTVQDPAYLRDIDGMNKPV
UniProt P35368, whole entry: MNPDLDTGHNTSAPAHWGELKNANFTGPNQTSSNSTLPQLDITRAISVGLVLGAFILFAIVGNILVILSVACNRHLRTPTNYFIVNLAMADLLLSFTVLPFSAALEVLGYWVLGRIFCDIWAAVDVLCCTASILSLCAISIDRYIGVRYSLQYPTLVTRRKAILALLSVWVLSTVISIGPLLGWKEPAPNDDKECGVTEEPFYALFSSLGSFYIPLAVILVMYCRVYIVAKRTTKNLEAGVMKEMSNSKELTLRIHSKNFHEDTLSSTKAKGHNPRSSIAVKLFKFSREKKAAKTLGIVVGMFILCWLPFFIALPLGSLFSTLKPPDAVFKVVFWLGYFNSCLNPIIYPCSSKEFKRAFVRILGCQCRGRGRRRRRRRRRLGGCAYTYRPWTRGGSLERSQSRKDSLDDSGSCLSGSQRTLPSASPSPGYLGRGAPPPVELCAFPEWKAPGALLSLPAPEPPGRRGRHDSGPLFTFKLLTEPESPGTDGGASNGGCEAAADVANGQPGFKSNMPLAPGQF
UniProt P18825, whole entry: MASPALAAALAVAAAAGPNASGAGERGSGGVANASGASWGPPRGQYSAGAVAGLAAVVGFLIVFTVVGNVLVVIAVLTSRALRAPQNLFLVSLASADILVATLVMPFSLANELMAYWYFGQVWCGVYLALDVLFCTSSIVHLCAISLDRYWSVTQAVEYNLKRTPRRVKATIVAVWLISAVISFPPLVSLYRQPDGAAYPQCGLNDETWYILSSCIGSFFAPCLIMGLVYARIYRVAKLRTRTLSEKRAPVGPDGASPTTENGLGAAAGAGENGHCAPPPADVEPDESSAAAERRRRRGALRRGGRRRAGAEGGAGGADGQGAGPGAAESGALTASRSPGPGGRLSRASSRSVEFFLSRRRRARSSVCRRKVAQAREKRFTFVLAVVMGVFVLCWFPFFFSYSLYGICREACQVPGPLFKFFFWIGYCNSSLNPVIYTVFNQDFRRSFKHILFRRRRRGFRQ
UniProt P25021, whole entry: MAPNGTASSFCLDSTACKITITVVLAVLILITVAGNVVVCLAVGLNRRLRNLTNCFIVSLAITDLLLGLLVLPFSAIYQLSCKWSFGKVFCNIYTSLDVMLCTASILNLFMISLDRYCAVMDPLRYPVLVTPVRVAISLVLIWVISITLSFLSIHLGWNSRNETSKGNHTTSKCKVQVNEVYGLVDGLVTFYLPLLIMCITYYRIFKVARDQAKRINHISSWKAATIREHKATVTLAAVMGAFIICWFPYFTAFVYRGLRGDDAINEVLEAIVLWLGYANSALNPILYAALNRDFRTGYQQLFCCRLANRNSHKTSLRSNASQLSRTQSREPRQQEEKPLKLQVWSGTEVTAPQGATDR
UniProt P18089, whole entry: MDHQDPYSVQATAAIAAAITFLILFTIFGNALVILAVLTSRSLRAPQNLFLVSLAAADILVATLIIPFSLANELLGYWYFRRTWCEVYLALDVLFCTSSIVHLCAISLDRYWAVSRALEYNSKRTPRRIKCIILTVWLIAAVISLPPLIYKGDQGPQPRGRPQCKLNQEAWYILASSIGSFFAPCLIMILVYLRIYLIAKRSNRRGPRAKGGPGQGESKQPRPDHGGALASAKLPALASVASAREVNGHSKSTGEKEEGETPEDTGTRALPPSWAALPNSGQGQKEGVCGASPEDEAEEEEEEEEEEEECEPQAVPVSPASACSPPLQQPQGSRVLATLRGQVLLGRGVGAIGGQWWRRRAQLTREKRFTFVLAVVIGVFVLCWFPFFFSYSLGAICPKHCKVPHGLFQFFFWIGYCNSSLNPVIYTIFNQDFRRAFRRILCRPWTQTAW
UniProt P31645, whole entry: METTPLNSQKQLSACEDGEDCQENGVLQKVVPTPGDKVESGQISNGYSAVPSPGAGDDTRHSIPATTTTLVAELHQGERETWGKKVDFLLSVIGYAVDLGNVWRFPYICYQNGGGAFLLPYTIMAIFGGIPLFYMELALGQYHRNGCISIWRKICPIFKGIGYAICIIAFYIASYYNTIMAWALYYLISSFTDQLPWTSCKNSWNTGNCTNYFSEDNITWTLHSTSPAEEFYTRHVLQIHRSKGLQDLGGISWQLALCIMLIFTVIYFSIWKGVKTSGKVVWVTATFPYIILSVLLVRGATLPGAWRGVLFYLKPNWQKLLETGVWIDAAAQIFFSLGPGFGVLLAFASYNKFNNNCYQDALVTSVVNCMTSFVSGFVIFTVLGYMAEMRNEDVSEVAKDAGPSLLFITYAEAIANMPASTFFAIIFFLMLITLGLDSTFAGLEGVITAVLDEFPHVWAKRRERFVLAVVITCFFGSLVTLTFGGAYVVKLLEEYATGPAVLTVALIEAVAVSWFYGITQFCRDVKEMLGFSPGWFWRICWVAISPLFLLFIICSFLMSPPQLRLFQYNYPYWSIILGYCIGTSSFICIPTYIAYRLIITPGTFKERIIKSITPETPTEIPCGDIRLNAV

The target of assay [12] is hSERT (Homo sapiens, UniProt P31645). As to the kind of experiment: NIMH-PDSP radioligand binding. Particulars: read-out: affinity Ki hSERT.

On to corynantheidine, for which the 50% effective concentration (EC50) in assay [1] was 67.2 nM. The Ki in assay [2] is 3920 nM; in assay [3], 74 nM; in assay [4], 118 nM; in [5], 1160 nM; in assay [6] it was 2110 nM; in assay [7] it was 3300 nM. For the same substance, the Ki in [8] turned out to be 269 nM; in assay [9], 5130 nM; in assay [10], 1540 nM; in [11], 397 nM; in assay [12], 2610 nM.

One may read the EC50 as the concentration at which the effect is half-maximal.

The record behind these values is article PMC8328003 (ACS chemical neuroscience, 2021).
